The conditions of the series: rhesus monkey, in vivo, inhaled or intranasal. The protocol: Blood was obtained at 10, 20, 30, 60, 120, 240, and 480 minutes post-administration from the monkeys administered the solid dosage form. For the monkeys treated with the nasal spray, blood was obtained 5, 10, 20, 30, 60, 120, 240, and 480 minutes post-treatment.
Blood was obtained at 5, 10, 20, 30, 60, 120, and 240 minutes post-administration.
Administered dose was 6 mg/animal. […] Blood was obtained at 5, 10, 20, 30, 60, 120, and 240 minutes post-administration.
(§1) Administered dose was 6 mg/animal. […] Administered dose was 6 mg/animal. Blood was obtained at 5, 10, 20, 30, 60, 120, and 240 minutes post-administration.
Total dose was 6 mg/animal. Blood was obtained at 5, 10, 20, 30, 60, 120, and 240 minutes post-administration.
as §1, §1
(§2) Administered dose was 6 mg/animal. […] Administered dose was 6 mg/animal. […] Blood was obtained at 5, 10, 20, 30, 60, 120, and 240 minutes post-administration.
as §2

A word on the Cmax: it is the maximum level reached in the sampled fluid or tissue.

As to `CNS(=O)(=O)Cc1ccc2[nH]cc(CCN(C)C)c2c1` [sumatriptan freebase], the AUC is reported as 2865 ng:min/ml and the Cmax came to 345 ng/mL.

The values are drawn from US9101539B2, “Intranasal pharmaceutical compositions with improved pharmacokinetics” (SHIN NIPPON BIOMEDICAL LABORATORIES, LTD., priority 2009, dated 2015).
